How the values were obtained:
[1] = target: Delta-type opioid receptor (Homo sapiens, UniProt P41143)
Mu-type opioid receptor = Mu-type opioid receptor (Homo sapiens, UniProt P35372)
[2] = target: Kappa-type opioid receptor (Homo sapiens, UniProt P41145)

Chains of the proteins cited; added tags and fusions are not shown. Lines headed by an entry give the natural chain unless they say otherwise; changes in a name come on top.
UniProt P41143, whole entry: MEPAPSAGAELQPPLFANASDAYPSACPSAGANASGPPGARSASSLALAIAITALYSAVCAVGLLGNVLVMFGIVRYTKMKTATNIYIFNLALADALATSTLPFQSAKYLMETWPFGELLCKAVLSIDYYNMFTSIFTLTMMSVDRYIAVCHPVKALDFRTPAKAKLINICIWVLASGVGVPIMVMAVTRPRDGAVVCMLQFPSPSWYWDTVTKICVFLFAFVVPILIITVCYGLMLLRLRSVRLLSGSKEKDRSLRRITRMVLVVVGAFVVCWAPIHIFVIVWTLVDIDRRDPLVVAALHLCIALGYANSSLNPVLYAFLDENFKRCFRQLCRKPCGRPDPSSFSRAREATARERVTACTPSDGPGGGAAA
UniProt P35372, whole entry: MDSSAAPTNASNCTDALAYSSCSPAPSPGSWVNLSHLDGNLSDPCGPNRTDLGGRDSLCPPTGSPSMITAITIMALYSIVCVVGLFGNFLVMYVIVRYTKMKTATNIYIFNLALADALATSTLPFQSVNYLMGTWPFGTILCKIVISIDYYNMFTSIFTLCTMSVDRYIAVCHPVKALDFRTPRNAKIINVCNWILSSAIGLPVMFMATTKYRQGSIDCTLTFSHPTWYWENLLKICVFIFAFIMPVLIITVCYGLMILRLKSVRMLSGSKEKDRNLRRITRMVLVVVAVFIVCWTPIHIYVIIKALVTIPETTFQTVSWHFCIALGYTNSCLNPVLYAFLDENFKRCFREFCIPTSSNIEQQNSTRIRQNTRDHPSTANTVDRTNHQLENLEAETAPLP
UniProt P41145: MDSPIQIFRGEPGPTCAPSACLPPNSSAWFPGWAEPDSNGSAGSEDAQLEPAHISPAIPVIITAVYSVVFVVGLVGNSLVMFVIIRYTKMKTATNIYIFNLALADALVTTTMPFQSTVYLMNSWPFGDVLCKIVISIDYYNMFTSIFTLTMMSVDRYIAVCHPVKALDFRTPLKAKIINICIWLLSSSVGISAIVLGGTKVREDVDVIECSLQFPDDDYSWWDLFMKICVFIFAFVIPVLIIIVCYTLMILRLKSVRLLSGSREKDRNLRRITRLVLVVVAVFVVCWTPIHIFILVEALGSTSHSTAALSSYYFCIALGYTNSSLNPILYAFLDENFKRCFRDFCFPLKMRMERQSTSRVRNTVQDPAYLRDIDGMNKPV

Structure (SMILES): Cc1cc(O)cc(C)c1C[C@H](N)C(=O)N[C@H](CCCNC(=N)N)C(=O)N[C@@H](Cc1ccccc1)C(=O)N[C@@H](CCCCN)C(N)=O [[Dmt1]DALDA]
- Ki [1]: 1670 nM
- Ki (Mu-type opioid receptor): 0.172 nM
- Ki [2]: 4.4 nM

Reference: BindingDB's records for doi:10.1124/jpet.103.054775 (Cornell University, 2003)
